How the values were obtained:
[1] = molecular target: T1, Sodium channel protein type 9 subunit alpha (Homo sapiens, UniProt Q15858); format: cell-based, HEK293
[2] = molecular target: T1, Sodium channel protein type 9 subunit alpha; assay: Radioligand Binding Assay: Radioligand Binding Studies: Saturation experiments. A representative compound of formula (I) was tritiated. Three tritiums were incorporated in place of methyl hydrogens to generate [3H]compound. Binding of this radioligand was preformed in 5 mL borosilicate glass test tubes at room temperature. Binding was initiated by adding membranes to increasing concentrations of [3H]compound in 100 mM NaCl, 20 mM Tris HCl, pH 7.4 buffer containing 0.01% w/v bovine serum albumin (BSA) for 18 h. Non-specific binding was determined in the presence of 1 uM unlabelled compound. After 18 h, the reactants were filtered through GF/C glass fiber filters presoaked in 0.5% w/v polyethylene imine. […] [3H]compound bound to filters was quantified by liquid scintillation counting.Competitive binding experiments.

By UniProt entry, the sequences of proteins in these tests, tags left out.
UniProt Q15858, whole entry: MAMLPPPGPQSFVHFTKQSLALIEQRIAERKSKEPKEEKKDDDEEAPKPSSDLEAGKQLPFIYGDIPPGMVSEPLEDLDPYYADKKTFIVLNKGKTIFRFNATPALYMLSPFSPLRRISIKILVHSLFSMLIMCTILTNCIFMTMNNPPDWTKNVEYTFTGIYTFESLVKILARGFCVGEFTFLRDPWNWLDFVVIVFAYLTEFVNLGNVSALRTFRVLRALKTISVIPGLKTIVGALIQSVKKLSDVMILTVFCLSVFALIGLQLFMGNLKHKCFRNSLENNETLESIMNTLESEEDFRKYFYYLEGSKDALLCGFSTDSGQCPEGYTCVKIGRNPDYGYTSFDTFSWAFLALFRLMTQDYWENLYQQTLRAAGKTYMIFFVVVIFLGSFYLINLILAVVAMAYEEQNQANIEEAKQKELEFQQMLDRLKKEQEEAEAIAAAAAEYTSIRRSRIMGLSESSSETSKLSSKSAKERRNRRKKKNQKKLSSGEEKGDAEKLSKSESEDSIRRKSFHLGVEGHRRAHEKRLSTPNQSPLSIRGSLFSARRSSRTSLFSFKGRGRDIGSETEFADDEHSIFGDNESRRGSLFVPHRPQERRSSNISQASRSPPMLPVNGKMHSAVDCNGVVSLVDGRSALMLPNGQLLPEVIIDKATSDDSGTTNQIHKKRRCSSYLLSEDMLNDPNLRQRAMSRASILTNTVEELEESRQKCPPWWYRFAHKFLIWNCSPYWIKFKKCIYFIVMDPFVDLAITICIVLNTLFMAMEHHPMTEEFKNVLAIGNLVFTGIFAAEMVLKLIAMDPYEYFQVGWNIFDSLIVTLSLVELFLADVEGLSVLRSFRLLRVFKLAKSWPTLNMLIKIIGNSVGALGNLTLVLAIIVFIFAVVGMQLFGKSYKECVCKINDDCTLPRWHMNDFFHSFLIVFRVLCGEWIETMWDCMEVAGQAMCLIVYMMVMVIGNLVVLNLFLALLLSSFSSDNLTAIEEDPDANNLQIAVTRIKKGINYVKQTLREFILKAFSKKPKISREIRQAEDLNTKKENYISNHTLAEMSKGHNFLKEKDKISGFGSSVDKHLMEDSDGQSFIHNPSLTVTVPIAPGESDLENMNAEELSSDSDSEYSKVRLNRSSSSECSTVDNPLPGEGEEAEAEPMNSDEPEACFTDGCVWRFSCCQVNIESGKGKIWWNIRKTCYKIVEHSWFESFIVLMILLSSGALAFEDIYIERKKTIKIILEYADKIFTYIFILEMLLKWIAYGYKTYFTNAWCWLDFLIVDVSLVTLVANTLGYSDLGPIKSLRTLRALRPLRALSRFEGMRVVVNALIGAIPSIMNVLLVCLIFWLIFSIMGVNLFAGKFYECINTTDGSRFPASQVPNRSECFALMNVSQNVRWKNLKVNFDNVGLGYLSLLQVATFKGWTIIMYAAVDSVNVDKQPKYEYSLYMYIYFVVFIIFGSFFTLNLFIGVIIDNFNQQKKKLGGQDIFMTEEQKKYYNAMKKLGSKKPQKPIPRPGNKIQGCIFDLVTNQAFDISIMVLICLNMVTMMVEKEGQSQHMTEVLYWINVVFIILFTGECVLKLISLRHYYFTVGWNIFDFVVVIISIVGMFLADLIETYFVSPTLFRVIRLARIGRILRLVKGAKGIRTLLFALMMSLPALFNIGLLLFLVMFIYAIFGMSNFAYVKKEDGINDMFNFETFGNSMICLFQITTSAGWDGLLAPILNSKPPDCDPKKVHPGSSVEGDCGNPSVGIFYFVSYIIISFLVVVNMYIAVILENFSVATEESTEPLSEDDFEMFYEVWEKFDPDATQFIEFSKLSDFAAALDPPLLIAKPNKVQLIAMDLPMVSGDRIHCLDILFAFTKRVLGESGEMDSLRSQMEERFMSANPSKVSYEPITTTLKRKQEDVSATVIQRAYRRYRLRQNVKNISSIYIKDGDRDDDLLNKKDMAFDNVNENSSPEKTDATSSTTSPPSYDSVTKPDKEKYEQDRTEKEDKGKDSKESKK

Structure (SMILES)	IC50 [1]	IC50 [2]
CS(=O)(=O)NC(=O)c1cc(Cl)c(NCC23CC4CC(CC(C4)C2)C3)cc1F	356 nM	–
COCCS(=O)(=O)NC(=O)c1cc(C2CC2)c(OCC2CCCC2)cc1F	–	100 nM
CC1(COc2cc(F)c(C(=O)NS(=O)(=O)C3CC3)cc2C2CC2)CCC(F)(F)CC1	10 nM	4 nM

Source: ChEMBL document CHEMBL3638545 (2015)
